Columns and labels:
Nitric oxide synthase 1 = Nitric oxide synthase 1 (Rattus norvegicus, UniProt P29476); assay: Inhibition of rat brain nNOS assessed as nitric oxide mediated oxidation of oxyhemoglobin to methemoglobin
Nitric oxide synthase 3 = target: T1, Nitric oxide synthase 3 (Bos taurus, UniProt P29473); assay: Inhibition of bovine eNOS assessed as nitric oxide mediated oxidation of oxyhemoglobin to methemoglobin
T1 sequence (P29473 whole entry): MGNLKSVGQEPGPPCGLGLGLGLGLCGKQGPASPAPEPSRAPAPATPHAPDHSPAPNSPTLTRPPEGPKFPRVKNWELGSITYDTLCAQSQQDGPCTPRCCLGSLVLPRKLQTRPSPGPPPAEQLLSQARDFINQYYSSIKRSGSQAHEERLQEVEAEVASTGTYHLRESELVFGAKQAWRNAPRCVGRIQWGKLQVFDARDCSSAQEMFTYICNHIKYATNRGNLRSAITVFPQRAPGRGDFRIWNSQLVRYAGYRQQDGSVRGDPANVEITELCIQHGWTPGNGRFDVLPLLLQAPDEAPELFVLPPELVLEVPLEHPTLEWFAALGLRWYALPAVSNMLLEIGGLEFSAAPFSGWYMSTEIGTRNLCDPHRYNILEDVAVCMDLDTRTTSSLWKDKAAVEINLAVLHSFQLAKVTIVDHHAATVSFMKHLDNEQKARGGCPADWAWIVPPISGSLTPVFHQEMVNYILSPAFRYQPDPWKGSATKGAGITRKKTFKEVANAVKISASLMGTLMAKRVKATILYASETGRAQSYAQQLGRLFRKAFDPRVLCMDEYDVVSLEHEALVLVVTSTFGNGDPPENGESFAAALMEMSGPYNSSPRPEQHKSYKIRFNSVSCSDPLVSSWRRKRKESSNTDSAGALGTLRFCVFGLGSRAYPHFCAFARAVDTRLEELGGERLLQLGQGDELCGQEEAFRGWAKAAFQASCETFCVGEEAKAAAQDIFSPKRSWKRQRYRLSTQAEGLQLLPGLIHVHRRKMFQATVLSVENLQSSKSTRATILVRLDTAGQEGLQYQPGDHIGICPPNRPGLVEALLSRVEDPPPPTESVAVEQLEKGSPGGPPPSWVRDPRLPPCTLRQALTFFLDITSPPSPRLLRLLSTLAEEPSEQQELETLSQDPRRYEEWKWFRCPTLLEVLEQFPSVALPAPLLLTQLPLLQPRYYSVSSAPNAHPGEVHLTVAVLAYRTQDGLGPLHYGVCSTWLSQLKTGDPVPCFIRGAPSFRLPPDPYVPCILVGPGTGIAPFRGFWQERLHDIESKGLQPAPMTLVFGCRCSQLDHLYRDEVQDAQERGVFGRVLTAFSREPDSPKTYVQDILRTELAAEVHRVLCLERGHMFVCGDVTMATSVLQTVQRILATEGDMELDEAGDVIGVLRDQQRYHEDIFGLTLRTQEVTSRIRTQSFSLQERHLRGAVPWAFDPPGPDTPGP

Amino acid sequences for entries named in this document (tags omitted).
UniProt P29476, whole entry: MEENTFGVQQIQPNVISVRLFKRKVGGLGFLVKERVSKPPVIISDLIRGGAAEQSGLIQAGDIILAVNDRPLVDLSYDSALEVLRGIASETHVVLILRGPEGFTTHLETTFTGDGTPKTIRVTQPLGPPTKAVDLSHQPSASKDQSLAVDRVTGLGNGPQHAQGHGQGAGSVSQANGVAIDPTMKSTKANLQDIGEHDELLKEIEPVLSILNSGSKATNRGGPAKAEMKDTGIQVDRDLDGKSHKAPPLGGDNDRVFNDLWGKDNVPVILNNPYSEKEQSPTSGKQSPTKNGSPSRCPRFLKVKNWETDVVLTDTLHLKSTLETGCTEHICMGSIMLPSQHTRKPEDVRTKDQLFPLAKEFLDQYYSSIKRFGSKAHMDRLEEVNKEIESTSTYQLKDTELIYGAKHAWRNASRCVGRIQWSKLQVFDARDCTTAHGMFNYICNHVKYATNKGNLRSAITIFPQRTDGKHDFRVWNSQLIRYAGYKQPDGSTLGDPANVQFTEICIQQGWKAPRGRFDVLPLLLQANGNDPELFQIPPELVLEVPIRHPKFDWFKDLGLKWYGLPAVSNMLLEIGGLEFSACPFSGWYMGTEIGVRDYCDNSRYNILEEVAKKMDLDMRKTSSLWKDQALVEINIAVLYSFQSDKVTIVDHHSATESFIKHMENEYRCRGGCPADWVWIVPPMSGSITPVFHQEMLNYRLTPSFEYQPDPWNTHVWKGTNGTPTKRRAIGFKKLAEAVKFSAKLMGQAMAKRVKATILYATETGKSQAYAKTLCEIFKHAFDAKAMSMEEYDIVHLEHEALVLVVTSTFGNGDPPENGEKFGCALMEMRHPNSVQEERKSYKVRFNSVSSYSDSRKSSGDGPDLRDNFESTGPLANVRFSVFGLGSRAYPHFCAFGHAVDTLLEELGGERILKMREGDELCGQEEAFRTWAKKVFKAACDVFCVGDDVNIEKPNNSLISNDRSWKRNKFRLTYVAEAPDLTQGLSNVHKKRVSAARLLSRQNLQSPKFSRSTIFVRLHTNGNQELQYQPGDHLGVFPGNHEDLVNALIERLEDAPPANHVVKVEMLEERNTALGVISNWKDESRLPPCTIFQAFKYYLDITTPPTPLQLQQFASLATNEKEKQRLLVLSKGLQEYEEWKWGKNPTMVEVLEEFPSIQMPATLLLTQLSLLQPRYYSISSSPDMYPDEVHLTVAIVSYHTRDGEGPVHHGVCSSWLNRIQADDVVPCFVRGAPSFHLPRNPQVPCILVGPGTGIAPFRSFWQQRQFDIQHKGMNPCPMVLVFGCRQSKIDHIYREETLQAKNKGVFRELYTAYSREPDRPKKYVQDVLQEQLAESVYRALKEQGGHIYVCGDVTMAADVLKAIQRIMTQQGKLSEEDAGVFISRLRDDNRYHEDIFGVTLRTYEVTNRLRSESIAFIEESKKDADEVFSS

An IC50 (Nitric oxide synthase 1) of 7.3 µM and an IC50 (Nitric oxide synthase 3) of 1.1 mM were found for CC(=N)NCc1cccc(CN)c1 [1400W] in this work.
